# Measured affinities in a library of Ab-91 heavy chain variants

From the AlphaSeq antibody data of Engelhart et al. 2022 (doi:10.1038/s41597-022-01779-4), copy in the FLAb collection.

Target: peptide PDVDLGDISGINAS, taken from heptad repeat 2 (HR2) of SARS-CoV-2 spike.

Parent: Ab-91, a human scFv built as VL, the linker GGGGSGGGGSGGGGS, VH. Only the CDRs of the heavy chain vary.
VL: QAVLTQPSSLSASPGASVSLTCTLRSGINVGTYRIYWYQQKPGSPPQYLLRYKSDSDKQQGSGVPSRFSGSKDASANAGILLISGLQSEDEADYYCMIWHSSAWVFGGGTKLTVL
VH: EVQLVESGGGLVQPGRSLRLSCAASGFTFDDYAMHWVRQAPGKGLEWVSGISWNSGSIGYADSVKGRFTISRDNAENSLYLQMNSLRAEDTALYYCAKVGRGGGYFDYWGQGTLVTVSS

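The starting antibody came from a phage panning campaign against this peptide. AAYL51 was designed without a model: most single CDR substitutions and a random sample of double and triple ones. The assay is AlphaSeq: two haploid yeast populations carry antibody and antigen on their surface. After mating in shaken culture at 30 °C for 16 h, diploids were selected and their barcode pairs sequenced. A regression on co-assayed BCL2-family reference pairs converts the normalised counts of each replicate to an apparent Kd. Each pool was mated in three replicate cultures.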

Each variant is given by its three heavy chain CDRs, as the data file delimits them; those of the parent are GFTFDDYAMH, GISWNSGSIGYADSVK, VGRGGGYFDY.
Numbers give log10(Kd / nM), so 0 is 1 nM and 3 is 1 µM. Smaller is tighter.
Averages over replicates are reported, and they cover detected replicates only.
Where no diploid with the target was found in any replicate, the entry reads "not detected": below detection, most likely a poor binder, though not proof of it.
Three control strains display no target. For library AAYL51, 21% of the pairings with them gave a signal, with a median of 4.54 and one signal in twenty below 3.26, so weak values seen in few replicates may be background.

log10 Kd (nM), mean	replicates with signal	CDR-H1	CDR-H2	CDR-H3
not detected	0/3	GFTFDDYADH	GIQWNSGSIGYADSVK	VERGGGYFDY
2.97	1/3	RKTVDDYAMH	GISWNSGSIGYADSVK	VGRGGGYFDY
5.05	2/3	GFTFDDYCMH	GISWNSGSIPYADDVK	VGRGGGYFDY
4.64	1/3	GFTFDDYAMH	GVSWFSRSIGYADSVK	VGRGGGYFDY
not detected	0/3	GFTFDDYAMH	GISWVSGSITYADSVK	IGRGGGYFDY
3.26	1/3	GFTFDDYAMH	KISWNSGSIGYADSKK	VGKGGGYFDY
not detected	0/3	GQTFDDYAMH	GISWNSGSIGYWDSVK	VGRGGGYRDY
not detected	0/3	GFTFDDYAMH	GISWNSGNIGYADSVK	VGCGGGYFDY
5.08	2/3	GFTFDDYAMH	GRSWNSYSIGYADSVK	VGKGGGYFDY
not detected	0/3	GFEFDDYAMH	GGSWNSGSIGYAKSVK	VGRGGGYFDY
1.49	3/3	GFTFDDYAMH	GISWNSGEIGYYDSVK	VGRGGRYFDY
not detected	0/3	GFTFDDYLMH	GQSWNSGYIGYADSVK	VGRGGGYFDY
4.70	2/3	GFTFDDYAMH	GISWNSGSIGYADSVV	VGRGGGYSDY
5.32	1/3	LFTFGDYAMI	GISWNSGSIGYADSVK	VGRGGGYFDY
2.83	1/3	GMTFFDYAMH	GISWNSGSIGPADSVK	VGRGGGYFDY
not detected	0/3	HFTQDDYAMR	GISWNSGSIGYADSVK	VGRGGGYFDY
3.07	3/3	GFTFDDYAMH	GISPHSGSIGYADSVK	VGRGGGYFDY
not detected	0/3	GFTFDDYAMH	GISWNSGSIGYADSVT	VERGGGYFDY
not detected	0/3	TFTFDDYAME	GISWNSGSISYADSVK	VGRGGGYFDY
1.90	3/3	GFTFDIYAMH	GISWNSGSIGYADSVR	VGRGGGYFDY
1.48	3/3	PFTFDDFAMH	GISWNSGSIGYADSVK	VGRGGGSFDY
not detected	0/3	RFTFKHYAMH	GISWNSGSIGYADSVK	VGRGGGYFDY
0.74	3/3	GFTFDDYSMH	GISWNSGSIGYADSVK	VGLGGGYVDY
2.83	1/3	FFTFDDYAMH	GISWNSGSIGYADSVK	VGLGGGIFDY
not detected	0/3	GFTFDDYAMH	GIRWNSGSIGYADSVK	VGRGGGYFDI
0.46	3/3	GFTFDDYAMH	GISFDSGAIGYADSVK	VGRGGGYFDY
4.09	2/3	GFTFDDTAMH	GISWNSLSIWYADSVK	VGRGGGYFDY
3.13	3/3	GFTFDDYAMH	GISRNSGSFGYADSVK	VGRGGGYFDY
not detected	0/3	GPTFDDYAMH	GISWESGSLGYADSVK	VGRGGGYFDY
2.93	3/3	GFTFDDSAMH	GISWNSGSIGYCDEVK	VGRGGGYFDY
5.58	1/3	GFTFDDYAKN	GIQWNSGSIGYADSVK	VGRGGGYFDY
4.40	1/3	GFTFDDYAMH	GSSWNSGSEQYADSVK	VGRGGGYFDY
not detected	0/3	GFTFDDYAMH	GIPWNSGSIGIADSVK	VGRGYGYFDY
4.78	1/3	GFYFDDYCMH	GISRNSGSIGYADSVK	VGRGGGYFDY
5.66	1/3	GFTFDQYAMH	GISWNSCSIGYADSVK	VGRGGMYFDY
not detected	0/3	GFTFDDYAKH	GISWNSGSIGRADLVK	VGRGGGYFDY
4.31	1/3	RFTFDDYAMH	GISWSSGSIGYADSVK	VGRGGGYFDQ
5.55	2/3	QWTFDDYAMH	GISWNSGSIGYADSVH	VGRGGGYFDY
5.42	1/3	GFTFDDYAVH	RISWNSGSIGYADVVK	VGRGGGYFDY
not detected	0/3	GFDFDDYAMH	GISWNSGSIGYPDSVK	VGRGGGYFDY
4.54	1/3	GFTFDDYAMH	GISCNSGSIFYADSVK	VGRLGGYFDY
1.44	3/3	GFTFDDYAMH	GISWNSGSIGYAESVK	VGRGGGYCDY
4.04	1/3	WFTFDDYAMH	GTSWNSGSIGYADSVK	VGRGGGYFYY
5.54	2/3	GFTFDDYNMH	GISWNSGSIGYADSVK	VGRGGGGFDG
0.91	3/3	GFTFDDYAMH	GISWNSGSIGYADSVK	VGRGGGLIFY
4.90	2/3	AFTFDDYAMH	GISWNSGSIGYADSVK	VGRGRGYYDY
5.83	2/3	GFTFNDYAQH	GISWNSGSIGYPDSVK	VGRGGGYFDY
4.36	1/3	GFTFDDYAIH	GISWNSGSIGYADRVK	VGRGGGYMDY
4.14	3/3	GFTFDDYAMH	GISWNIGSIGYADSVK	VYYGGGYFDY
not detected	0/3	GFTFDDYAMH	GISWWSGSIGYALSVK	VGRGGGYFQY
3.02	3/3	GFTFDDYAMH	GISSNEGSIGYADSVK	VGRGGGYFDY
3.45	3/3	GFTFDDYAMH	GISWNSGSKEYADSVK	VGRGGGYFGY
not detected	0/3	HFTFDDYAMH	GISWNSGSIGYADQVK	VGRGGVYFDY
not detected	0/3	VFTFDDYAMH	GISWNSGSIGYADAVV	VGRGGGYFDY
not detected	0/3	GFTFDDYAMH	GISWNSWSIGYANSVK	VLRGGGYFDY
not detected	0/3	GHTFDDYAMH	GISWNSGSKGYPDSVK	VGRGGGYFDY
5.49	2/3	GFTFDDYAMH	GIDWNSGSIGYHDSVK	VGRGGGYFVY
not detected	0/3	GFTFDDYAMH	GISWYSGSIGYADSVK	VGPPGGYFDY
not detected	0/3	GFTFDDYAMH	GISWNSGSIHYADSVK	VYRGGGYFDY
not detected	0/3	GFTFIDYAMH	GISWNSGSIGYEDSVK	VGWGGGYFDY
3.76	1/3	GFTFDDYAMH	GISWNSGSFGYFDSVK	VSRGGGYFDY
4.35	1/3	GHTPNDYAMH	GISWNSGSIGYADSVK	VGRGGGYFDY
2.79	3/3	GFTFDDYAMH	GISWNSGSEGYALVVK	VGRGGGYFDY
not detected	0/3	GFTFDDYAMH	GISWNSGSRGAADPVK	VGRGGGYFDY
not detected	0/3	GFTFDDYAMW	GIMWNSGSIGKADSVK	VGRGGGYFDY
4.82	1/3	GFTFDDYAMV	GISWNQGSIGYADSVK	VGRGGGRFDY
4.94	3/3	GFTFDDYAMH	GIMWNSGSILYADSVK	VGRGGSYFDY
not detected	0/3	GFTFDDYAMH	GISWNSGSIGYADSVK	VGRGSGYFDD
not detected	0/3	GFTFDDYAMH	GISWNSGSIGPAYSVK	VGRGGFYFDY
not detected	0/3	GFTFDDYAMH	GISWNYGCIGYADLVK	VGRGGGYFDY
3.15	3/3	GFTFDDYAMH	GISWNSMSGGYADSVK	VERGGGYFDY
not detected	0/3	CKTFDDYAMH	GISWNSGSIGYADSVK	VGRGGHYFDY
not detected	0/3	GFTKDQYAMH	GIEWNSGSIGYADSVK	VGRGGGYFDY
not detected	0/3	GFTFDDYAMH	GISWNLGRIGYADVVK	VGRGGGYFDY
4.16	2/3	GFTFDDYAMH	GISWNWGWIGYADLVK	VGRGGGYFDY
5.24	3/3	GFTFDDYAMH	GISWNSGSIGYADSIH	VGRGGGKFDY

Repeated from above, the 11 best binders with a signal in all replicates:

{"CDR-H1": "GFTFDDYAMH", "CDR-H2": "GISFDSGAIGYADSVK", "CDR-H3": "VGRGGGYFDY", "log10 Kd (nM), mean": "0.46", "replicates with signal": "3/3"}
{"CDR-H1": "GFTFDDYSMH", "CDR-H2": "GISWNSGSIGYADSVK", "CDR-H3": "VGLGGGYVDY", "log10 Kd (nM), mean": "0.74", "replicates with signal": "3/3"}
{"CDR-H1": "GFTFDDYAMH", "CDR-H2": "GISWNSGSIGYADSVK", "CDR-H3": "VGRGGGLIFY", "log10 Kd (nM), mean": "0.91", "replicates with signal": "3/3"}
{"CDR-H1": "GFTFDDYAMH", "CDR-H2": "GISWNSGSIGYAESVK", "CDR-H3": "VGRGGGYCDY", "log10 Kd (nM), mean": "1.44", "replicates with signal": "3/3"}
{"CDR-H1": "PFTFDDFAMH", "CDR-H2": "GISWNSGSIGYADSVK", "CDR-H3": "VGRGGGSFDY", "log10 Kd (nM), mean": "1.48", "replicates with signal": "3/3"}
{"CDR-H1": "GFTFDDYAMH", "CDR-H2": "GISWNSGEIGYYDSVK", "CDR-H3": "VGRGGRYFDY", "log10 Kd (nM), mean": "1.49", "replicates with signal": "3/3"}
{"CDR-H1": "GFTFDIYAMH", "CDR-H2": "GISWNSGSIGYADSVR", "CDR-H3": "VGRGGGYFDY", "log10 Kd (nM), mean": "1.90", "replicates with signal": "3/3"}
{"CDR-H1": "GFTFDDYAMH", "CDR-H2": "GISWNSGSEGYALVVK", "CDR-H3": "VGRGGGYFDY", "log10 Kd (nM), mean": "2.79", "replicates with signal": "3/3"}
{"CDR-H1": "GFTFDDSAMH", "CDR-H2": "GISWNSGSIGYCDEVK", "CDR-H3": "VGRGGGYFDY", "log10 Kd (nM), mean": "2.93", "replicates with signal": "3/3"}
{"CDR-H1": "GFTFDDYAMH", "CDR-H2": "GISSNEGSIGYADSVK", "CDR-H3": "VGRGGGYFDY", "log10 Kd (nM), mean": "3.02", "replicates with signal": "3/3"}
{"CDR-H1": "GFTFDDYAMH", "CDR-H2": "GISPHSGSIGYADSVK", "CDR-H3": "VGRGGGYFDY", "log10 Kd (nM), mean": "3.07", "replicates with signal": "3/3"}